{"source": "patent US8143245B2", "about": "(Pierre Fabre Medicament, priority 2006, dated 2012)", "origin": "cited, not measured here", "system": "M3 muscarinic receptors versus M2 muscarinic receptors", "details": "cited from earlier work", "data": [{"smiles": "CCN(CC)CC#CCOC(=O)C(O)(c1ccccc1)C1CCCCC1", "note": "(stereo not shown) [oxybutynine]", "values": [{"measurement": "Selectivity between M3 and M2 receptor", "result": "more selective with respect to the M3 receptor than with respect to the M2"}]}]}
